The values below are quoted from earlier work in the PKSmart pharmacokinetics tables (Seal et al. 2025).

The series in a line: Lombardo, Berellini, Obach 2018, Drug Metab Dispos 46:1466, doi 10.1124/dmd.118.082966. Particulars: human; for MRT / Vd / clearance / half-life: in vivo, iv.

In the case of `O=[N+]([O-])OC[C@H](O)CO`, the MRT (commonly the average time that molecules of a dose stay in the body) is 4.12 h; the Vd (in general, the apparent volume that relates the amount in the body to the concentration in plasma or blood) is 0.76 L/kg; the clearance (as a rule, the rate of elimination divided by the concentration) was 3.63 mL/min/kg; the half-life (commonly the time in which the quantity being followed falls by half) was 2.5 h.
For the compound `N#CC(CCN1CCC(C(N)=O)(N2CCCCC2)CC1)(c1ccccc1)c1ccccc1`, the mean residence time (MRT) is 10 h, the volume of distribution (Vd) was 4.7 L/kg, the clearance was 7.8 mL/min/kg and the half-life was 8 h. For the setting “plasma”, the fraction unbound (commonly free concentration divided by total concentration) is 0.061.
For the compound `CN(C(=O)Cc1cccc2sccc12)[C@@H]1CCCC[C@H]1N1CCCC1`, the MRT is 5.9 h, the volume of distribution (Vd) is 1.1 L/kg, the clearance is 3 mL/min/kg and the half-life is 5.5 h.
